Among the data in ChEMBL document CHEMBL1955808, “Discovery of 4-hydroxy-1,6-naphthyridine-3-carbonitrile derivatives as novel PDE10A inhibitors” (Bioorg Med Chem Lett, 2012) are IC50 values, retold here.

Amino acid sequences for entries named in this document (tags omitted). A change or cut given only in a name is not applied to a line headed by its entry.
UniProt Q9Y233: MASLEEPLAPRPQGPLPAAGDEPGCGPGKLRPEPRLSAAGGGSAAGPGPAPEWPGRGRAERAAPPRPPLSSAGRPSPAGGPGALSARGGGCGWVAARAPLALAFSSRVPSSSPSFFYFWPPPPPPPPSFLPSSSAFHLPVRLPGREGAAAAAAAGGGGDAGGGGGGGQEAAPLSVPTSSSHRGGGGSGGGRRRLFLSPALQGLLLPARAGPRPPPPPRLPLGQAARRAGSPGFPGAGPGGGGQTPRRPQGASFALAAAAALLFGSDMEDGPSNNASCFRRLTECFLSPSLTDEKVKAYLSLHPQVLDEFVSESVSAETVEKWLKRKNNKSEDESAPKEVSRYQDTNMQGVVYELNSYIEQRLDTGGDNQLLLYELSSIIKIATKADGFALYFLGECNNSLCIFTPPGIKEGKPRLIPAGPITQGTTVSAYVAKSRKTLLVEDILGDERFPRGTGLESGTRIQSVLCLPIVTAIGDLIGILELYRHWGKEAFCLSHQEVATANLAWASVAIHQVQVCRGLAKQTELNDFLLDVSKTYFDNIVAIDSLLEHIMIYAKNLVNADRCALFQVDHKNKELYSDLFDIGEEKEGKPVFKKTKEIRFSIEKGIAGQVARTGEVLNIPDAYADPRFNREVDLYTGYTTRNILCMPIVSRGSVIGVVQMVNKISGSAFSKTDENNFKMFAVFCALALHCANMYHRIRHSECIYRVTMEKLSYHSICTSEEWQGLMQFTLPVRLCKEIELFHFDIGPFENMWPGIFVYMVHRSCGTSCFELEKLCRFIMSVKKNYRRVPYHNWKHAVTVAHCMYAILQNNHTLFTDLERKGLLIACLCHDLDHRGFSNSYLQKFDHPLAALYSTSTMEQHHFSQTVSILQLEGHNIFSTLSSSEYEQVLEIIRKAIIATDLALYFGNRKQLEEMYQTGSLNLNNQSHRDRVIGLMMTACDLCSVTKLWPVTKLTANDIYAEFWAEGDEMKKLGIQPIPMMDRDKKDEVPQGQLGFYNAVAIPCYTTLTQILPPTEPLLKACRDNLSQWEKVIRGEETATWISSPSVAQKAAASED

The target of this experiment is cAMP and cAMP-inhibited cGMP 3',5'-cyclic phosphodiesterase 10A (Homo sapiens, UniProt Q9Y233). Put plainly: Inhibition of human recombinant full length PDE10A using cAMP as substrate preincubated for 20 mins measured after 4 hrs.

In general, IC50 refers to the point on the concentration scale where inhibition reaches its midpoint. For the compound `COc1ccc(Cc2nccc3cc(OC)c(OC)cc23)cc1OC` [PAPAVERINE], the IC50 was 36 nM.
